# Measurements from patent publication US5017489A (priority 1988, dated 1991).
# Where “and” joins values, the source holds several entries; their conditions need not be identical. Identical values can stand only once. Like-named read-outs stand apart in the source and are kept apart here.
# Experiments:
# [1] = target: T1, human BLT-serine esterase (NP-40 solubilized HE-14 membranes) (Homo sapiens, UniProt P12544)
# T1 sequence (P12544 29-262): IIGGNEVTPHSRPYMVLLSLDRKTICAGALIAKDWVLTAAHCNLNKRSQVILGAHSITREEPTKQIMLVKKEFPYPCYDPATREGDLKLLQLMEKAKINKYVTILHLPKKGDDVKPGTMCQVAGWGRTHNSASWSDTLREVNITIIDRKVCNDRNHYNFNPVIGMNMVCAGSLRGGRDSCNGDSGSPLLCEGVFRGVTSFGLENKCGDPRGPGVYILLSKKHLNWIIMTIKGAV
# [2] = target: T1, human BLT-serine esterase (NP-40 solubilized HE-14 membranes); test: biochemical; settings: 0.5 mM inhibitor
inhibition of human BLT-serine esterase (in words) ([1]; human enzyme),inhibition at 500 µM [2],SMILES,Esterase Activity OD412 [1],Inhibition % [1],inhibition of human BLT-serine esterase (in words) [1]
,,"O=S(=O)(F)Cc1ccccc1 [PMSF, phenylmethylsulfonyl fluoride]",0.018 OD412,97%,inhibited
not,4%,"Cc1ccc(S(=O)(=O)N[C@@H](Cc2ccccc2)C(=O)CCl)cc1 [TPCK, N-tosyl-L-phenylalanine chloromethyl ketone]",,,
,,"Cc1ccc(S(=O)(=O)N[C@@H](CCCCN)C(=O)CCl)cc1 [TLCK, N-α-tosyl lysyl chloromethyl ketone]",0.615 OD412 and 0.585 OD412,-1% and 1% and 4%,not
